Test: Biodistribution of radiolabelled DTPA complexes in normal rats, compared with 99mTc-DTPA positive control
Format: in vivo
Conditions: normal Sprague-Dawley rats; 111In-labelled complex
Experimental: Commercially available DTPA kit (Draximage Co., Ontario, Canada) was labeled with ^99mTc by the standard procedure described in the package insert that was supplied with the kit, and was administered to Sprague-Dawley rats (3 rats for each time point of 15 minutes, 60 minutes, 120 minutes, and 24 hours). The biodistribution data, shown in FIG. 7, serves as a positive control for determining whether the novel compounds of the present invention clear via glomerular filtration.
A mixture of the stock solution of DTPA-mono(7-amino-4-methylcoumarin)amide ligand (1 mg/mL in 0.5M sodium acetate buffer, 100 μL), obtained from Gunma University, Japan (Ozaki, et. al. Reference 30), sodium acetate solution (0.5M, 100 μL), and commercially available ^111InCl3 solution (0.1M HCl, 100-200 μCi/100 μL) was adjusted to pH 4.5 and incubated at ambient temperature for 30 minutes. The resulting indium complex was purified by reverse phase HPLC and administered to Sprague-Dawley rats. The biodistribution was carried out in the same manner as that of ^99mTc-DTPA in Example 1 (FIG. 8).

Substance: ^111In-DTPA-mono(coumarin amide) complex [Example 2]
- clearance through the kidneys: cleared substantially through the kidneys
- hepatobiliary clearance (relative to reference complex): slightly more hepatobiliary clearance than ^99mTc-DTPA
